# Data reported in patent US20180333502A1 (published 2018).
# B1: anti-GITR-IgG2-IgG1 (antibody)
# heavy: QVQLVESGGGVVQPGRSLRLSCAASGFTFSSYGMHWVRQAPGKGLEWVAVIWYEGSNKYYADSVKGRFTISRDNSKNTLYLQMNSLRAEDTAVYYCARGGSMVRGDYYYGMDVWGQGTTVTVSSASTKGPSVFPLAPCSRSTSESTAALGCLVKDYFPEPVTVSWNSGALTSGVHTFPAVLQSSGLYSLSSVVTVPSSNFGTQTYTCNVDHKPSNTKVDKTVERKCCVE[human IgG1 Fc not written out]
# light: AIQLTQSPSSLSASVGDRVTITCRASQGISSALAWYQQKPGKAPKLLIYDASSLESGVPSRFSGSGSGTDFTLTISSLQPEDFATYYCQQFNSYPYTFGQGTKLEIKRTVAAPSVFIFPPSDEQLKSGTASVVCLLNNFYPREAKVQWKVDNALQSGNSQESVTEQDSKDSTYSLSSTLTLSKADYEKHKVYACEVTHQGLSSPVTKSFNRGEC
# B2: anti-GITR-IgG1.1 (antibody)
# heavy: QVQLVESGGGVVQPGRSLRLSCAASGFTFSSYGMHWVRQAPGKGLEWVAVIWYEGSNKYYADSVKGRFTISRDNSKNTLYLQMNSLRAEDTAVYYCARGGSMVRGDYYYGMDVWGQGTTVTVSSASTKGPSVFPLAPSSKSTSGGTAALGCLVKDYFPEPVTVSWNSGALTSGVHTFPAVLQSSGLYSLSSVVTVPSSSLGTQTYICNVNHKPSNTKVDKKVEPKSCDKTHTCPPCPAPEAEGAPSVFLFPPKPKDTLMISRTPEVTCVVVDVSHEDPEVKFNWYVDGVEVHNAKTKPREEQYNSTYRVVSVLTVLHQDWLNGKEYKCKVSNKALPSSIEKTISKAKGQPREPQVYTLPPSREEMTKNQVSLTCLVKGFYPSDIAVEWESNGQPENNYKTTPPVLDSDGSFFLYSKLTVDKSRWQQGNVFSCSVMHEALHNHYTQKSLSLSPG
# light: AIQLTQSPSSLSASVGDRVTITCRASQGISSALAWYQQKPGKAPKLLIYDASSLESGVPSRFSGSGSGTDFTLTISSLQPEDFATYYCQQFNSYPYTFGQGTKLEIKRTVAAPSVFIFPPSDEQLKSGTASVVCLLNNFYPREAKVQWKVDNALQSGNSQESVTEQDSKDSTYSLSSTLTLSKADYEKHKVYACEVTHQGLSSPVTKSFNRGEC
# B3: anti-GITR-IgG1 (antibody)
# heavy: QVQLVESGGGVVQPGRSLRLSCAASGFTFSSYGMHWVRQAPGKGLEWVAVIWYEGSNKYYADSVKGRFTISRDNSKNTLYLQMNSLRAEDTAVYYCARGGSMVRGDYYYGMDVWGQGTTVTVSSASTKGPSVFPLAPSSKSTSGGTAALGCLVKDYFPEPVTVSWNSGALTSGVHTFPAVLQSSGLYSLSSVVTVPSSSLGTQTYICNVNHKPSNTKVDKKV[human IgG1 Fc not written out]
# light: AIQLTQSPSSLSASVGDRVTITCRASQGISSALAWYQQKPGKAPKLLIYDASSLESGVPSRFSGSGSGTDFTLTISSLQPEDFATYYCQQFNSYPYTFGQGTKLEIKRTVAAPSVFIFPPSDEQLKSGTASVVCLLNNFYPREAKVQWKVDNALQSGNSQESVTEQDSKDSTYSLSSTLTLSKADYEKHKVYACEVTHQGLSSPVTKSFNRGEC
# Target: T1, human GITR on cells (activated human T cells; 3A9-hGITR cells) (human, UniProt Q9Y5U5 26-241)
# T1 chain: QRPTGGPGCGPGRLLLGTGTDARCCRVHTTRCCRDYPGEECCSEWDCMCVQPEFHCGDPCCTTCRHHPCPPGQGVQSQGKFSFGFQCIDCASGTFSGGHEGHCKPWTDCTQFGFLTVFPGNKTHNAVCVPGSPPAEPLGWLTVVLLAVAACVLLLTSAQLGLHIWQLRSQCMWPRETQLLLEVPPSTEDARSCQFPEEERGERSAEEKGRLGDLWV
# Assay: FACS binding to activated human CD4 T cells
row,Binder,EC50 [pM]
1,B1,203
2,B2,286
3,B3,257
